From publication PMC5388777 (Frontiers in Psychiatry, 2017)
pEC50: −log10 of the molar value.

Chains of the proteins cited; added tags and fusions are not shown.
UniProt P41143, whole entry: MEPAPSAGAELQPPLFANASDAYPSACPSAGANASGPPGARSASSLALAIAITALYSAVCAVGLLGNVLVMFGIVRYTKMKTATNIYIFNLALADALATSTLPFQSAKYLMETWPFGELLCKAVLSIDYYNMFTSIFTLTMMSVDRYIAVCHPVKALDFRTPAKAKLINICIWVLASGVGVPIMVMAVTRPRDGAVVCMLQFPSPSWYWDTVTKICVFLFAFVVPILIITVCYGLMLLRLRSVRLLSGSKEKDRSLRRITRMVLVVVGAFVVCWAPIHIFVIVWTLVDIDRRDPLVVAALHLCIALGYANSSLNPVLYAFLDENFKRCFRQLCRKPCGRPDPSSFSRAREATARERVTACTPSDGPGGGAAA
UniProt P35372, whole entry: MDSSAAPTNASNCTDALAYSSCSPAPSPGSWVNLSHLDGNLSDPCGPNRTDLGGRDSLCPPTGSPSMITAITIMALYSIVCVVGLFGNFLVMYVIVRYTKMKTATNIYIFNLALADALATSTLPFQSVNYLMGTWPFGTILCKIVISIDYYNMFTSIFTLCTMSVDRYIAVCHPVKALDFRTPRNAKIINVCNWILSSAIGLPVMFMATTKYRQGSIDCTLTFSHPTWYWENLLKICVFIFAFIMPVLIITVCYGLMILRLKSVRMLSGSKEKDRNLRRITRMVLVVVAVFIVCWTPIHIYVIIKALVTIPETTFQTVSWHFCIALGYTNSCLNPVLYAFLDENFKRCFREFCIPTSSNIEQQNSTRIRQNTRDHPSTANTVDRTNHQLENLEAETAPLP

Tests used:
delta opioid receptor = target: T1, delta opioid receptor (Homo sapiens, UniProt P41143); experiment: [35S]GTPγS binding, CHO cell membranes; format: biochemical; conditions: mean ± SEM
T1 construct: expressed in transfected cells; membranes prepared

mu opioid receptor = target: T2, mu opioid receptor (Homo sapiens, UniProt P35372); format: biochemical
T2 construct: expressed in transfected cells; membranes prepared

Compound: C[C@@H](NC(=O)[C@@H](N)Cc1ccc(O)cc1)C(=O)NCC(=O)N(C)[C@@H](Cc1ccccc1)C(=O)NCCO [DAMGO, [D-Ala2, N-MePhe4, Gly-ol]-enkephalin, reference compound]
- pEC50 (delta opioid receptor): < 5.00

Compound: CC(C1CC1)N1CCC23CCCCC2C1Cc1ccc(O)cc13 (stereo not drawn) [PPL-103, α-methyl-cyclopropylmethyl-morphinan]
- Mu % Stim. (mu opioid receptor): 22.6 ± 0.05%
